# AlphaSeq binding of Ab-14 light chain variants to a spike HR2 peptide

Target: peptide PDVDLGDISGINAS, taken from heptad repeat 2 (HR2) of SARS-CoV-2 spike.

Parent: Ab-14, a human scFv built as VH, a 15-residue (Gly4Ser)3 linker, VL. Only the CDRs of the light chain vary.
VH: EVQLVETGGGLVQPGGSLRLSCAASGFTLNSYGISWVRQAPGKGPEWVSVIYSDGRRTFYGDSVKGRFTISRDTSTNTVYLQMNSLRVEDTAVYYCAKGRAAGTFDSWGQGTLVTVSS
VL: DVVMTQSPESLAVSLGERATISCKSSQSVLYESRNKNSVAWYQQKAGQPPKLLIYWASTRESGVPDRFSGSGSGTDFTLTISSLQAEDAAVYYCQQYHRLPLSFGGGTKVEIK

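The parent was found by panning a naive human phage display library on the peptide. Library AAYL50 holds single substitutions and randomly drawn double and triple substitutions in the CDRs. Affinity was read by AlphaSeq, a pooled yeast mating assay with surface-displayed partners. Binding brings cells together so that they mate, and sequencing counts the barcode pairs among the diploids. A regression on co-assayed BCL2-family reference pairs converts the normalised counts of each replicate to an apparent Kd. The assay was run in three technical replicates.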

Substitutions are numbered in sequence along the VL above, starting at 1 (not Kabat).
This list gathers variants with a substitution at V29 (VL, numbered from residue 1).
Affinities are written as log10 Kd with Kd in nM; a lower number is a better binder.
The mean shown is taken over the replicates in which the pair was detected.
Where no diploid with the target was found in any replicate, the entry reads "no signal": below detection, most likely a poor binder, though not proof of it.
Background: pairings of library AAYL50 with three empty control strains gave a value in 18% of cases (median 4.19, 5th percentile 2.99). Values in that range, when seen in few replicates, are hard to tell from nonspecific mating.

Variant V29C/E61V/S103Q gave 2.62 (1 of 3 replicates).
Variant Q27P/V29L/L100H gave 1.79 (3 of 3 replicates).
Variant V29L/S58D/P101E gave no signal (0 of 3 replicates).
Variant V29F/W56M/Y97Q gave 0.26 (3 of 3 replicates).
Variant V29H/S58M/L102M gave no signal (0 of 3 replicates).
Variant V29T/N35F/S103C gave 1.74 (3 of 3 replicates).
Variant S28Q/V29Y/Y31S gave 0.70 (3 of 3 replicates).
Variant S25D/V29T/R34T gave 0.37 (3 of 3 replicates).
Variant V29T/H98S/L102S gave no signal (0 of 3 replicates).
Variant V29Q/A40I/Y97E gave 4.40 (1 of 3 replicates).
Variant K24W/V29L/W56H gave 0.35 (3 of 3 replicates).
Variant V29C/N35M/A40N gave 3.78 (3 of 3 replicates).
Variant V29A/A57W/L102I gave 4.40 (3 of 3 replicates).
Variant V29A/H98N/L102G gave 0.85 (3 of 3 replicates).
Variant V29L/V39F/W56H gave 0.52 (3 of 3 replicates).
Variant S25R/S28F/V29C gave 1.69 (3 of 3 replicates).
Variant V29M/W56Y gave 0.19 (3 of 3 replicates).
Variant V29T/E61P/L102K gave 3.75 (1 of 3 replicates).
Variant Q27G/V29A/H98W gave 2.25 (3 of 3 replicates).
Variant V29F gave 0.60 (3 of 3 replicates).
Variant V29Q/E32N/V39S gave 4.57 (2 of 3 replicates).
Variant V29Y/R60W gave no signal (0 of 3 replicates).
Variant V29D/V39A/L102K gave 3.73 (2 of 3 replicates).
Variant S26N/V29E/S33Q gave 2.29 (3 of 3 replicates).
Variant V29R/R34F/T59P gave 3.67 (2 of 3 replicates).
Variant S26K/V29E/Q96R gave 1.34 (3 of 3 replicates).
Variant V29L/Q96W/H98Q gave 3.88 (2 of 3 replicates).
Variant V29I/S33I/H98W gave 4.07 (3 of 3 replicates).
Variant V29D/N35K gave 2.57 (3 of 3 replicates).
Variant V29M/W56I/S62V gave 4.22 (3 of 3 replicates).
Variant V29Y/A40I/W56K gave no signal (0 of 3 replicates).
Variant V29Y/S38G/R99M gave 3.55 (1 of 3 replicates).
Variant S26M/V29A/Y31Q gave 0.93 (3 of 3 replicates).
Variant V29N/L102T/S103T gave 2.96 (1 of 3 replicates).
Variant V29Y/P101S gave 3.71 (1 of 3 replicates).
Variant V29L/R34D/W56K gave 2.19 (3 of 3 replicates).
Variant V29P/V39P/T59M gave 2.79 (3 of 3 replicates).
Variant V29C/V39W gave no signal (0 of 3 replicates).
Variant V29A/H98P/R99Q gave 4.24 (1 of 3 replicates).
Variant V29P/S58V/E61Q gave 2.82 (3 of 3 replicates).
Variant S26P/V29T/S33Q gave 1.55 (3 of 3 replicates).
Variant V29W/Y31L/S58D gave 0.78 (3 of 3 replicates).
Variant V29N/R60A/S62A gave 3.82 (3 of 3 replicates).
Variant V29E/E32Q/N37F gave 2.48 (3 of 3 replicates).
Variant V29L/S33K/R60G gave 4.11 (2 of 3 replicates).
Variant V29S/A40P/A57Y gave 5.16 (1 of 3 replicates).
Variant S28N/V29A/H98V gave 1.15 (3 of 3 replicates).
Variant V29C/S62R/S103W gave 2.90 (3 of 3 replicates).

Extract of 5 entries:

For S26N/V29E/S33Q, the assay gave 2.29 (3 of 3 replicates).
For K24W/V29L/W56H, the assay gave 0.35 (3 of 3 replicates).
For V29A/A57W/L102I, the assay gave 4.40 (3 of 3 replicates).
For V29S/A40P/A57Y, the assay gave 5.16 (1 of 3 replicates).
For V29Q/E32N/V39S, the assay gave 4.57 (2 of 3 replicates).

In this assay the parent's reference entry averaged 0.65; its copy inside this library read 1.68.

From the AlphaSeq antibody data of Engelhart et al. 2022 (doi:10.1038/s41597-022-01779-4), copy in the FLAb collection.